Here are results for one compound from ChEMBL document CHEMBL2074434, “Interaction of cytochrome P450 3A inhibitors with P-glycoprotein” (J Pharmacol Exp Ther, 2002).

Amino acid sequences for entries named in this document (tags omitted).
UniProt P06795, whole entry: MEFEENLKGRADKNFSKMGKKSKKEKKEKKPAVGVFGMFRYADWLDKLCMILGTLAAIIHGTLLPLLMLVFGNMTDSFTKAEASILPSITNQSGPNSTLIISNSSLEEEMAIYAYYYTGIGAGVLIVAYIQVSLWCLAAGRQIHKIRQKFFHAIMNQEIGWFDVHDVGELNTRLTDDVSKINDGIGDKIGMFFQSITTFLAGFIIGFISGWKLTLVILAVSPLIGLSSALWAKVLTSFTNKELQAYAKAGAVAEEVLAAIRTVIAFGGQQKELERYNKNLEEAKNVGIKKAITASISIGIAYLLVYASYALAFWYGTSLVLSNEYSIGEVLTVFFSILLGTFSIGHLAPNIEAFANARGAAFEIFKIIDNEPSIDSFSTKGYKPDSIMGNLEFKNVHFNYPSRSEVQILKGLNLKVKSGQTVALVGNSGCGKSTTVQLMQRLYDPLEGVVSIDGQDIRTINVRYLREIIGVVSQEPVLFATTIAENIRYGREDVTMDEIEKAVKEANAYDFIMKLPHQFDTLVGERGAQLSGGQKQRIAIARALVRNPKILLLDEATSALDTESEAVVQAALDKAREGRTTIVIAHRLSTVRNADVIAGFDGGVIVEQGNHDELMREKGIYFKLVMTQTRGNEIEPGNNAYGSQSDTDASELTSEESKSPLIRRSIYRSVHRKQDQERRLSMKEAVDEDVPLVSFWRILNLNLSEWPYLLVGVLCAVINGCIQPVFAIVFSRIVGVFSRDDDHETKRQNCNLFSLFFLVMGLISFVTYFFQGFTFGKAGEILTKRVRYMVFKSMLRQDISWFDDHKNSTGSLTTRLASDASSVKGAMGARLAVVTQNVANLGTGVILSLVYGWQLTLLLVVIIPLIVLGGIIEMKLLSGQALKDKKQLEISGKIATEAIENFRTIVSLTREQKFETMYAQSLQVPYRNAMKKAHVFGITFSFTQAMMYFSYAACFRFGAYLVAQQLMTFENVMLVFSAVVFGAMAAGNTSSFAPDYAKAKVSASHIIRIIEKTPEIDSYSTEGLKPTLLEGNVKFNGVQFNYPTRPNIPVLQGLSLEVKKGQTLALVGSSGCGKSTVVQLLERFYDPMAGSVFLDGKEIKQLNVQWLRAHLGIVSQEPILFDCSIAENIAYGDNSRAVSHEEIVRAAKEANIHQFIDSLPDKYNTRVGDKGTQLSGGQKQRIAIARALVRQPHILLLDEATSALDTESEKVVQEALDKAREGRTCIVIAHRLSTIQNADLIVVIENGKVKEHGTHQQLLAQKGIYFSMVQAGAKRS

As a reminder, the Ki is the equilibrium dissociation constant of an inhibitor or competing ligand from its target.

Bounds are passed on as bounds.

The assay has as its target ATP-dependent translocase ABCB1 (Mus musculus, UniProt P06795). The experiment in a line: TP_TRANSPORTER: increase in Calcein-AM intracellular accumulation in mdr1b-expressing LLC-PK1 cells. Format: functional, cell-based.

For `CC[C@H]1OC(=O)[C@H](C)[C@@H](O[C@H]2C[C@@](C)(OC)[C@@H](O)[C@H](C)O2)[C@H](C)[C@@H](O[C@@H]2O[C@H](C)C[C@H](N(C)C)[C@H]2O)[C@](C)(O)C[C@@H](C)C(=O)[C@H](C)[C@@H](O)[C@]1(C)O` [ERYTHROMYCIN], the inhibition constant (Ki) was > 1000 µM.
